Legend:
DLD-1 BRCA2−/− cells = assay: Homologous recombination synthetic lethal inhibition of proliferation, DLD-1 BRCA2-/- (Cell Titre Glo 3D); format: cell-based
Excerpt: (§1) This assay identifies anti-proliferative effects of POLQ compounds in the homologous recombination deficient colorectal cell line DLD-1 BRCA2−/− over 8-9 population doublings (7 days for DLD-1 and 12 days for DLD-1 BRCA2−/−). DLD1 BRCA2 wt are used as a control to detect cell toxic effects not specific to homologous recombination deficiency.
(§2) DLD-1 BRCA2−/− and DLD-1 cells were kept in continuous culture in Assay Medium (RPMI 1640 phenol red free (Sigma R7509) containing 1% GlutaMAX (Gibco 35050) and 10% Foetal Bovine Serum (Gibco 10270-106)). On the day of the assay cells in culture of ˜80-90% confluent were used. […] Cells were counted using a ViCell and the cell images were monitored for clumps of cells, ideally they should be single or <3 cell clusters. The cells were diluted to 3,000 cells/mL of DLD-1 BRCA2−/− and 1,500 cells/mL of DLD-1 in Assay Medium and 100 μL added per well of transparent bottomed, black, tissue culture-treated 96-well plates (CoStar, No. 3904) Assay Ready Plates. The Assay Ready Plates contain a 10 point 10 μM to 0.51 nM dose range with three-fold dilutions in DMSO with a final volume of 100 nL. […] On day 6, 100 μL/well of Assay Medium was added to duplicate Assay Ready Plates. 90 μL of culture medium was removed from the cell plates and replenished with the Assay Media and compounds from the duplicate Assay Ready Plates using the Bravo. […]

DLD-1 cells = assay: Inhibition of proliferation, DLD-1 BRCA2 wt control (Cell Titre Glo 3D); format: cell-based
Excerpt: as §1, §2

SMILES: CC1(Oc2ncnc3c2nc(-c2ccc(OCCN4CCNCC4)cc2Cl)n3Cc2nncs2)CC1
- POLQ PD Prolif Lumin BRCA2 −/− mean pIC50 (DLD-1 BRCA2−/− cells): <5.0
- POLQ PD Prolif Lumin DLD1 mean PIC50 (DLD-1 cells): <5.0
